Values quoted from earlier work, collected in patent publication US9983196B2, “Compositions and methods for optimizing drug hydrophobicity and drug delivery to cells” (Bioelastics, Inc., priority 2009, dated 2018).

What was measured:
[1] = guest residue χ in poly[fχ(GχGVP),fv(GVGVP)], extrapolated to fχ=1; some cells marked (Tt); cited from earlier work
[2] = cited from earlier work

| Substance | Tt [1] | ΔG°HA(GχGVP) ([2]; DSC, reference GGGVP = 0) | ΔG°HA(GχGVP) (from graph) ([2]; Tt used to obtain value from experimental sigmoid curve of Tt versus ΔG°HA) |
| --- | --- | --- | --- |
| Ala [A: Ala] | 50 °C | −0.75 kcal/mol-pentamer | – |
| Arg [R: Arg] | 60 (Tt) ° C. | – | +0.80 (from graph) kcal/mol-pentamer |
